{
  "sequences": {"note": "Chains of the proteins cited; added tags and fusions are not shown.", "UniProt P35372, whole entry": "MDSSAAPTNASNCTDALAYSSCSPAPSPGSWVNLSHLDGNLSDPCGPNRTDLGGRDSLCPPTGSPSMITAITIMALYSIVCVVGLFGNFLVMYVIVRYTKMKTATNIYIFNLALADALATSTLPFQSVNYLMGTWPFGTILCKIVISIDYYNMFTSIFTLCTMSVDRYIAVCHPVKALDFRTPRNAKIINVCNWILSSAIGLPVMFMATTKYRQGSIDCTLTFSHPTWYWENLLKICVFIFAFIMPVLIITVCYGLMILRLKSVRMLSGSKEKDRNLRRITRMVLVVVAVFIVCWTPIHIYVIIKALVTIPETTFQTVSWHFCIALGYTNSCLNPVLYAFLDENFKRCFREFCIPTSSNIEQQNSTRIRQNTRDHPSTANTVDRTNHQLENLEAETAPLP"},
  "source": "patent US10577360B2",
  "about": "“Arylamide derivatives having multimodal activity against pain” (ESTEVE PHARMACEUTICALS, S.A., priority 2016, dated 2020)",
  "data": [
    {"molecular_target": "human μ-opioid receptor (Homo sapiens (Human), UniProt P35372)", "assay": "Human μ-opioid receptor radioligand assay ([3H]-DAMGO binding)", "settings": "read-out: μ (Ki), transfected CHO-K1 cell membranes", "units": {"Ki": "nM"}, "values": [
      {"smiles": "Cc1nnc(-c2cccc(-n3ccc(N(C(=O)c4cccc(O)c4)C4CCNCC4)n3)c2)o1", "Ki": "> 500"},
      {"smiles": "CN(CCN(C(=O)c1cccs1)c1ccn(-c2ccccc2)n1)Cc1ccccc1", "note": "[Example 61, N-{2-[Benzyl(methyl)amino]ethyl}-N-(1-phenyl-1H-pyrazol-3-yl)thiophene-2-carboxamide]", "Ki": "< 100"},
      {"smiles": "Cc1nnc(-c2cccc(-n3ccc(N(C(=O)c4cccc(O)c4)[C@H]4CC[C@H](N(C)Cc5ccccc5)CC4)n3)c2)o1", "note": "[Example 153, N-{(1r,4r)-4-[Benzyl(methyl)amino]cyclohexyl}-3-hydroxy-N-{1-[3-(5-methyl-1,3,4-oxadiazol-2-yl)phenyl]-1H-pyrazol-3-yl}benzamide]", "Ki": "< 100"},
      {"smiles": "O=C(c1cccs1)N(CCNCc1ccccc1)c1ccn(-c2ccccc2)n1", "note": "[Example 55, N-[2-(Benzylamino)ethyl]-N-(1-phenyl-1H-pyrazol-3-yl)thiophene-2-carboxamide]", "Ki": "< 100"},
      {"smiles": "CN1CCCC(N(C(=O)c2cccs2)c2ccn(-c3ccccc3)n2)CC1", "note": "(stereo not shown) [Example 39, N-(1-Methylazepan-4-yl)-N-(1-phenyl-1H-pyrazol-3-yl)thiophene-2-carboxamide]", "Ki": "> 500"},
      {"smiles": "O=C(c1cccs1)N(c1ccn(-c2ccccc2)n1)C1CCCNC1", "note": "(stereo not shown) [Example 53, N-(1-Phenyl-1H-pyrazol-3-yl)-N-(piperidin-3-yl)thiophene-2-carboxamide]", "Ki": "> 500"},
      {"smiles": "CN1CCCC(N(C(=O)c2cccs2)c2ccn(-c3ccccc3)n2)C1", "note": "(stereo not shown) [Example 67, N-(1-Methylpiperidin-3-yl)-N-(1-phenyl-1H-pyrazol-3-yl)thiophene-2-carboxamide]", "Ki": "> 500"},
      {"smiles": "Cc1nnc(-c2cccc(-n3ccc(N(C(=O)c4cccc(O)c4)[C@H]4CC[C@@H](N(C)Cc5ccccc5)CC4)n3)c2)o1", "note": "[Example 154, N-{(1s,4s)-4-[Benzyl(methyl)amino]cyclohexyl}-3-hydroxy-N-{1-[3-(5-methyl-1,3,4-oxadiazol-2-yl)phenyl]-1H-pyrazol-3-yl}benzamide]", "Ki": "< 100"},
      {"smiles": "O=C(c1cccs1)N(CCCNCc1ccccc1)c1ccn(-c2ccccc2)n1", "note": "[Example 56, N-[3-(Benzylamino)propyl]-N-(1-phenyl-1H-pyrazol-3-yl)thiophene-2-carboxamide]", "Ki": "< 100"},
      {"smiles": "CCNCCN(C(=O)c1cccs1)c1ccn(-c2ccccc2)n1", "note": "[Example 68, N-[2-(Ethylamino)ethyl]-N-(1-phenyl-1H-pyrazol-3-yl)thiophene-2-carboxamide]", "Ki": "100 to 500"},
      {"smiles": "CNCCN(C(=O)c1cccs1)c1ccn(-c2ccccc2)n1", "note": "[Example 57, N-[2-(Methylamino)ethyl]-N-(1-phenyl-1H-pyrazol-3-yl)thiophene-2-carboxamide]", "Ki": "< 100"},
      {"smiles": "Cc1nnc(-c2cccc(-n3ccc(N(C(=O)c4cccs4)[C@H]4CC[C@@H](N(C)Cc5ccccc5)CC4)n3)c2)o1", "note": "[Example 152, N-{(1s,4s)-4-[Benzyl(methyl)amino]cyclohexyl}-N-{1-[3-(5-methyl-1,3,4-oxadiazol-2-yl)phenyl]-1H-pyrazol-3-yl}thiophene-2-carboxamide]", "Ki": "< 100"},
      {"smiles": "Cc1nnc(-c2cccc(-n3ccc(N(C(=O)c4cccc(O)c4)C4C[C@@H](C)N[C@@H](C)C4)n3)c2)o1", "note": "(stereo partly shown)", "Ki": "> 500"},
      {"smiles": "CN(Cc1ccccc1)C1CCC(N(C(=O)c2cccs2)c2ccn(-c3ccccc3)n2)CC1", "note": "(stereo not shown) [Example 128, N-{4-[Benzyl(methyl)amino]cyclohexyl}-N-(1-phenyl-1H-pyrazol-3-yl)thiophene-2-carboxamide]", "Ki": "100 to 500"},
      {"smiles": "CN(CCCN(C(=O)c1cccs1)c1ccn(-c2ccccc2)n1)Cc1ccccc1", "note": "[Example 62, N-{3-[Benzyl(methyl)amino]propyl}-N-(1-phenyl-1H-pyrazol-3-yl)thiophene-2-carboxamide]", "Ki": "< 100"},
      {"smiles": "Cc1nnc(-c2cccc(-n3ccc(N(C(=O)c4cccs4)[C@H]4CC[C@H](N(C)Cc5ccccc5)CC4)n3)c2)o1", "note": "[Example 151, N-{(1r,4r)-4-[Benzyl(methyl)amino]cyclohexyl}-N-{1-[3-(5-methyl-1,3,4-oxadiazol-2-yl)phenyl]-1H-pyrazol-3-yl}thiophene-2-carboxamide]", "Ki": "> 500"}
    ]}
  ]
}
